Drawing on patent US20070238731A1, “Dna-Pk Inhibitors” (KUDOS PHARMACEUTICALS LIMITED, priority 2004, published 2007), this text covers IC50 for 21 molecules.

Chains of the proteins cited; added tags and fusions are not shown.
UniProt P78527, whole entry: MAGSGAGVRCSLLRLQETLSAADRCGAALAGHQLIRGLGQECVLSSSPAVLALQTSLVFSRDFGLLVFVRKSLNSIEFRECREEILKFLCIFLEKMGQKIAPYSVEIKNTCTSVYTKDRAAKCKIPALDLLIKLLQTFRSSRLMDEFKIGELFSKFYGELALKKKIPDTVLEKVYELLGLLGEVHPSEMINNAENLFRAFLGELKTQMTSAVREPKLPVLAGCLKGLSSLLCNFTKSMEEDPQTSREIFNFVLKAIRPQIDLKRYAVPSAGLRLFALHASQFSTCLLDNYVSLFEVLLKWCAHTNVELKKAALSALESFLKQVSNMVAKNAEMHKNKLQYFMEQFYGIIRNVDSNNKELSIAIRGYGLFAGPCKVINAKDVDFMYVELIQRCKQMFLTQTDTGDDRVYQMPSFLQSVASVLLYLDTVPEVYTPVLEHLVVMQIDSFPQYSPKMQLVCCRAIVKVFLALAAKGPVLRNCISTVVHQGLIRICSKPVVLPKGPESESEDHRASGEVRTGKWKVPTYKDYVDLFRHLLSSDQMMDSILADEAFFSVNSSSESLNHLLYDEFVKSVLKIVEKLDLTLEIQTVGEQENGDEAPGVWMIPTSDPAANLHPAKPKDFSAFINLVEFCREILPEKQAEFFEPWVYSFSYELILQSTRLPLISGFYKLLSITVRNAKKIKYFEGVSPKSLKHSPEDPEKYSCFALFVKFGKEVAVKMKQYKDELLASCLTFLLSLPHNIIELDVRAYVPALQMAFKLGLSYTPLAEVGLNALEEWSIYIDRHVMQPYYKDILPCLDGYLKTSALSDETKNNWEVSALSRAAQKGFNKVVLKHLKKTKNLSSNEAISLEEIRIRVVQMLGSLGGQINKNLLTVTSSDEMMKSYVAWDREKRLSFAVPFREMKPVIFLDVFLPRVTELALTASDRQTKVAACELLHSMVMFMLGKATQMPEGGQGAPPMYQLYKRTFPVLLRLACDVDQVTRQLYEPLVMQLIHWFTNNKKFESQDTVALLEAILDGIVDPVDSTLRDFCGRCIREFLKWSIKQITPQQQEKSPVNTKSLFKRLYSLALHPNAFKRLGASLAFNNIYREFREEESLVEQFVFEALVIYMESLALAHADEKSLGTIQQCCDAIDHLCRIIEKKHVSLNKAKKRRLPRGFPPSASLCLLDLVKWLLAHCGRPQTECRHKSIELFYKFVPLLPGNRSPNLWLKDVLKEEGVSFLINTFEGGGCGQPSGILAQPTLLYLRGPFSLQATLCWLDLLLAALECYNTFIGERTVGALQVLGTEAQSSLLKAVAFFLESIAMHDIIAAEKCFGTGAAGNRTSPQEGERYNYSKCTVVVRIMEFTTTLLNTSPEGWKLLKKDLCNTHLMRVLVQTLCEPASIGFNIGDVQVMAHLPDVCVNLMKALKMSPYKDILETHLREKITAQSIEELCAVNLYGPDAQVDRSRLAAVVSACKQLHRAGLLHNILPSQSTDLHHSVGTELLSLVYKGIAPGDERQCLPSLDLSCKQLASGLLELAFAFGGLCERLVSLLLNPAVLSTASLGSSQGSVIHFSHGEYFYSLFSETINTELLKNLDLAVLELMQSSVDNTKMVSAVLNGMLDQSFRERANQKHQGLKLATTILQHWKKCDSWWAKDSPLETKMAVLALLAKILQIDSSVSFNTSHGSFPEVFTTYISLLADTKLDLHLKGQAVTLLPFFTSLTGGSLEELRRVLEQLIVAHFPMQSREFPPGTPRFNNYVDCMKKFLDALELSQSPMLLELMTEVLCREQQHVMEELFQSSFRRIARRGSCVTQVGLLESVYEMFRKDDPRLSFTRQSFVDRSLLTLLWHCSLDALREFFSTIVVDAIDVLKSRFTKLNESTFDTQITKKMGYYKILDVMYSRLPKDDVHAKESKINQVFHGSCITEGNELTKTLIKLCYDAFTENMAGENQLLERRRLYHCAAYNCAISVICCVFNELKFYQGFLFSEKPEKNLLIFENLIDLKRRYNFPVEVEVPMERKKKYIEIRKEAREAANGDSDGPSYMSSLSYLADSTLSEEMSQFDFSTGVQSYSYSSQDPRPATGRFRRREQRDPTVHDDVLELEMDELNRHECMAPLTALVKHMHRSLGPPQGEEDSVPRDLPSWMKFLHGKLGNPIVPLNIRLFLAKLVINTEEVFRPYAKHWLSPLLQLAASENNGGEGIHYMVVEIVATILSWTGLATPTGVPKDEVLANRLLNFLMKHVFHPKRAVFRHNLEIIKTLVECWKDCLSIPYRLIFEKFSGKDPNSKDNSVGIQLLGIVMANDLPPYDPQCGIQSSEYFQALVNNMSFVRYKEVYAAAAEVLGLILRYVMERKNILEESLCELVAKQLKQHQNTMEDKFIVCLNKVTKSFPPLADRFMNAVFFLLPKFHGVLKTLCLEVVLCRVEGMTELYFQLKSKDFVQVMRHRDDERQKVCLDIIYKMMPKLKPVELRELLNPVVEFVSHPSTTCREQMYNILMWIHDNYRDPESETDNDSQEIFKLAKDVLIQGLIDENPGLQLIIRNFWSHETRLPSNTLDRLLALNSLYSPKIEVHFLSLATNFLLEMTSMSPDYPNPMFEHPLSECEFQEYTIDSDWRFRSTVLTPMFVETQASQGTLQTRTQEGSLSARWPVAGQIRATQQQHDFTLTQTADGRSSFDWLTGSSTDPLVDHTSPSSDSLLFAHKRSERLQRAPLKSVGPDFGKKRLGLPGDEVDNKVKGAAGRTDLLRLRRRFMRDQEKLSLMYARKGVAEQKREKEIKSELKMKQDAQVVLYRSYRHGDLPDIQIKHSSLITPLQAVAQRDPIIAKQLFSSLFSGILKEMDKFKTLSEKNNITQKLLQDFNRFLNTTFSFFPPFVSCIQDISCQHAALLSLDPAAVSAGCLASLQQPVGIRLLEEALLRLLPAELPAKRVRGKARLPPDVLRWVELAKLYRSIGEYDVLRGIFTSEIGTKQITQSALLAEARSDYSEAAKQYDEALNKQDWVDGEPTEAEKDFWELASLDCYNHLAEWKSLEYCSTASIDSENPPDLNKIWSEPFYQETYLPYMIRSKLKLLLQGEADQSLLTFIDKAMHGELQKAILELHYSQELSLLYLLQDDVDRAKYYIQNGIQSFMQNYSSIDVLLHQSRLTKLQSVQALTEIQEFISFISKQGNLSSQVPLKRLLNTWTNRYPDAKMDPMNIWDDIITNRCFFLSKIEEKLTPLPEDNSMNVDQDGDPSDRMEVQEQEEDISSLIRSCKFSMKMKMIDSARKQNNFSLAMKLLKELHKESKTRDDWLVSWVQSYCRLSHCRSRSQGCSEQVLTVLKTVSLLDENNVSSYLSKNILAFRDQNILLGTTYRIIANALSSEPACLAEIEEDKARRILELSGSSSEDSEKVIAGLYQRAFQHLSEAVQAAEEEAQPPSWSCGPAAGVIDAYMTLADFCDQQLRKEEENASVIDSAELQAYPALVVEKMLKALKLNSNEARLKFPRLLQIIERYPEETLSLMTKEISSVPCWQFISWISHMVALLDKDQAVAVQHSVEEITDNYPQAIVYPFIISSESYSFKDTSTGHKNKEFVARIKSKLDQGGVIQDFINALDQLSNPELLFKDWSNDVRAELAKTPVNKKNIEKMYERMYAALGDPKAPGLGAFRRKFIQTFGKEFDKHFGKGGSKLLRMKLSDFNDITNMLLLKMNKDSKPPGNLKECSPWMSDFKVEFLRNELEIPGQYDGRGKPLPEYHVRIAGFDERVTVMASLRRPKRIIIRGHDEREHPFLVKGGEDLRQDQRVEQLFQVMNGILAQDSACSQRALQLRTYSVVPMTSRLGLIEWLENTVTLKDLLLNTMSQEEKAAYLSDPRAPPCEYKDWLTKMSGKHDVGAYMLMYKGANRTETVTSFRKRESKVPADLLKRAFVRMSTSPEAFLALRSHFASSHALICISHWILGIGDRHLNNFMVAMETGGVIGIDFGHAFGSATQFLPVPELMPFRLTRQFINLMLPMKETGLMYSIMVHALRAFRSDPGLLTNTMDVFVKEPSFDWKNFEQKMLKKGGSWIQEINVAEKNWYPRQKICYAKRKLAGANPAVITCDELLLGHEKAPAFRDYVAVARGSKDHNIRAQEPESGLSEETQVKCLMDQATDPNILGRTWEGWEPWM

What is called IC50 is the midpoint of a concentration-inhibition curve.

In the first experiment the target is Mammalian DNA-PK (Homo sapiens, UniProt P78527). Put plainly: DNA-PK inhibition (ELISA of p53 Ser15 phosphorylation of GST-p53N66). The format is biochemical, Mammalian (isolated from HeLa cell nuclear extract).
Conditions: not given
On the technique in general: In an ELISA, binding on a coated surface is turned into a signal by an enzyme label.
In turn, `CC(C)N1CCN(CCOc2ccc(-c3cccc4c(=O)cc(N5CCOCC5)oc34)c3sc4ccccc4c23)CC1` [Compound 83] came in with an IC50 of less than 10 nM. `CN(C)CCOc1ccc(-c2cccc3c(=O)cc(N4CCOCC4)oc23)c2sc3ccccc3c12` [Compound 88] returned an IC50 of less than 10 nM. The same measure, in the same setting: as for `COCCN1CCN(CC(=O)Nc2ccc(-c3cccc4c(=O)cc(N5CCOCC5)oc34)c3sc4ccccc4c23)CC1` [Compound 24], the figure is less than 10 nM; as for `O=C(CN1CCN(CCO)CC1)Nc1ccc(-c2cccc3c(=O)cc(N4CCOCC4)oc23)c2sc3ccccc3c12` [Compound 32], less than 10 nM; as for `CCN1CCN(CC(=O)Nc2ccc(-c3cccc4c(=O)cc(N5CCOCC5)oc34)c3sc4ccccc4c23)CC1` [Compound 26], less than 10 nM. As for `CN1CCCN(CCOc2ccc(-c3cccc4c(=O)cc(N5CCOCC5)oc34)c3sc4ccccc4c23)CC1` [Compound 90], the IC50 was less than 10 nM.

The molecule `CC(=O)N1CCN(CC(=O)Nc2ccc(-c3cccc4c(=O)cc(N5CCOCC5)oc34)c3sc4ccccc4c23)CC1` [Compound 23] registered an IC50 of less than 10 nM. Turning to `O=c1cc(N2CCOCC2)oc2c(-c3ccc(OCCNc4cccnc4)c4c3sc3ccccc34)cccc12` [Compound 86], the IC50 is less than 10 nM. Take `O=c1cc(N2CCOCC2)oc2c(-c3cccc4c3sc3ccccc34)cccc12` [reference compound]: the IC50 was in the range of 10 to 12 nM. Regarding `O=C(CN(CCO)CCO)Nc1ccc(-c2cccc3c(=O)cc(N4CCOCC4)oc23)c2sc3ccccc3c12` [Compound 5], the IC50 is less than 10 nM.

On to `C[C@@H]1CN(CC(=O)Nc2ccc(-c3cccc4c(=O)cc(N5CCOCC5)oc34)c3sc4ccccc4c23)C[C@H](C)O1` [Compound 18], for which the IC50 was less than 10 nM. With `O=c1cc(N2CCOCC2)oc2c(-c3ccc(OCCNCc4ccncc4)c4c3sc3ccccc34)cccc12` [Compound 85], the IC50 is less than 10 nM. Consider `CC(=O)N1CCN(CCOc2ccc(-c3cccc4c(=O)cc(N5CCOCC5)oc34)c3sc4ccccc4c23)CC1` [Compound 84], for which the IC50 was less than 10 nM. `O=C(CN1CCN(CCOCCO)CC1)Nc1ccc(-c2cccc3c(=O)cc(N4CCOCC4)oc23)c2sc3ccccc3c12` [Compound 25] yielded an IC50 of less than 10 nM.

Still in this experiment, the particulars now being: ATP 50 μM, 30° C.; read-out: IC50 DNA-PK inhibition.
On to `NC(=O)CNCCOc1ccc(-c2cccc3c(=O)cc(N4CCOCC4)oc23)c2sc3ccccc3c12` [Compound 91], for which the IC50 is less than 10 nM.

With `NCCC(=O)Nc1ccc(-c2cccc3c(=O)cc(N4CCOCC4)oc23)c2sc3ccccc3c12` [Compound 51], the concentration for half-maximal inhibition (IC50) is less than 10 nM. Still for that read-out and setting: for `O=C(CCNCC1CCCO1)Nc1ccc(-c2cccc3c(=O)cc(N4CCOCC4)oc23)c2sc3ccccc3c12` (stereo not drawn) [Compound 53] the value was less than 10 nM. The same measure, in the same setting: for `COC(=O)C(CO)NCCOc1ccc(-c2cccc3c(=O)cc(N4CCOCC4)oc23)c2sc3ccccc3c12` (stereo not drawn) [Compound 82] the value was less than 10 nM; for `COCCNCCC(=O)Nc1ccc(-c2cccc3c(=O)cc(N4CCOCC4)oc23)c2sc3ccccc3c12` [Compound 60], less than 10 nM; for `O=c1cc(N2CCOCC2)oc2c(-c3ccc(OCCNCCN4CCOCC4)c4c3sc3ccccc34)cccc12` [Compound 81], less than 10 nM.

Regarding `COC(=O)[C@H](CO)NC(=O)COc1ccc(-c2cccc3c(=O)cc(N4CCOCC4)oc23)c2sc3ccccc3c12` [Compound 95], the IC50 was less than 10 nM.
